Data reported in patent publication US7345020B2, “Mimetics of CD4 that inhibit immune response” (Thomas Jefferson University, priority 1995, dated 2008).
Several values for one entry are separate records, joined by “and”; a condition that tells them apart may be missing. Identical values can stand only once.

Target: MHC, class II, gene products (on Raji cells) (human)
Experiment: cell-based or functional assay

inhibition of rosettes between Raji cells and CD4-transiently transfected COS-7 cells by cyclic peptide CNSNQIC (SEQ ID NO:45) at 200 uM: 57% and 63% and 51%
inhibition of rosetting of Cr-51 labelled Raji cells to stably T4-pMV7-transfected COS-1 cells by CNSNQIC (SEQ ID NO:45) at 200 uM: > 75%
Substance: human CD4 (from UniProt P01730 26-458) (receptor)
